Consider three molecules from US20040049056A1 (priority 2000, published 2004).

Where two headings read alike, the source gives them in different places.

The test system of one assay is Lactuca sativa. The following applies: 50 mg/L, 25° C., 7 days, visual assessment.
For another assay, the system named is Solanum nigrum. The note with it: 50 mg/L, 25° C., 7 days, visual assessment.
Where [1] appears, read: 50 mg/L, 25° C., 7 days, visual assessment.

For the molecule `Oc1ccc(O)c(OCc2ccccc2)c1` [Compound (a), 2-benzyloxy-1,4-hydroquinone], the “Herbicidal activity (0 to 5) Amaranthus retroflexuso” value in the assay with Amaranthus retroflexuso (setting [1]) is listed as 5 (suppressed by 80% or more). The “Herbicidal activity (0 to 5) Lactuca sativa” value in the assay on Lactuca sativa came out at 4.8. Further, in the assay on Solanum nigrum, the “Herbicidal activity (0 to 5) Solanum nigrum” value is 5 (suppressed by 80% or more). Besides, in the assay with Setaria viridis (setting [1]), the “Herbicidal activity (0 to 5) Setaria viridis” value is on record as 1 (suppressed by less than 20%) and the “Kind of herbicidal effect, Setaria viridis” value is “IglrUr”.

Turning to `O=Cc1cc2c(cc1O)OCO2` [Compound (d), 4,5-methylenedioxysalicylaldehyde], in the assay with Amaranthus retroflexuso (setting [1]), the “Herbicidal activity (0 to 5) Amaranthus retroflexuso” value came out at 0. Moreover, in the assay with Lactuca sativa, the “Herbicidal activity (0 to 5) Lactuca sativa” value was 2 (suppressed by a range from 20% to less than 40%). Moreover, in the assay with Solanum nigrum, the “Kind of herbicidal effect, Solanum nigrum” value is on record as “Iglr”. For the same molecule, in the assay on Setaria viridis (setting [1]), the “Herbicidal activity (0 to 5) Setaria viridis” value is on record as 0.

`CC1(C)Oc2cc(O)c(C=O)cc2O1` [Compound (e), 2,2-dimethyl-5-formyl-6-hydroxy-1,3-benzodioxol]: the “Herbicidal activity (0 to 5) Amaranthus retroflexuso” value in the assay on Amaranthus retroflexuso (in vivo) is 0. The “Herbicidal activity (0 to 5) Setaria viridis” value in the assay on Setaria viridis (in vivo) was found to be 0.
